Values quoted from earlier work as cited in patent US20050009124A1, “Assays for detection of phosphoinositide kinase and phosphatase activity” (Echelon Biosciences Incorporated, priority 2001, published 2005).

Amino acid sequences for entries named in this document (tags omitted).
UniProt P48736, whole entry, species assumed: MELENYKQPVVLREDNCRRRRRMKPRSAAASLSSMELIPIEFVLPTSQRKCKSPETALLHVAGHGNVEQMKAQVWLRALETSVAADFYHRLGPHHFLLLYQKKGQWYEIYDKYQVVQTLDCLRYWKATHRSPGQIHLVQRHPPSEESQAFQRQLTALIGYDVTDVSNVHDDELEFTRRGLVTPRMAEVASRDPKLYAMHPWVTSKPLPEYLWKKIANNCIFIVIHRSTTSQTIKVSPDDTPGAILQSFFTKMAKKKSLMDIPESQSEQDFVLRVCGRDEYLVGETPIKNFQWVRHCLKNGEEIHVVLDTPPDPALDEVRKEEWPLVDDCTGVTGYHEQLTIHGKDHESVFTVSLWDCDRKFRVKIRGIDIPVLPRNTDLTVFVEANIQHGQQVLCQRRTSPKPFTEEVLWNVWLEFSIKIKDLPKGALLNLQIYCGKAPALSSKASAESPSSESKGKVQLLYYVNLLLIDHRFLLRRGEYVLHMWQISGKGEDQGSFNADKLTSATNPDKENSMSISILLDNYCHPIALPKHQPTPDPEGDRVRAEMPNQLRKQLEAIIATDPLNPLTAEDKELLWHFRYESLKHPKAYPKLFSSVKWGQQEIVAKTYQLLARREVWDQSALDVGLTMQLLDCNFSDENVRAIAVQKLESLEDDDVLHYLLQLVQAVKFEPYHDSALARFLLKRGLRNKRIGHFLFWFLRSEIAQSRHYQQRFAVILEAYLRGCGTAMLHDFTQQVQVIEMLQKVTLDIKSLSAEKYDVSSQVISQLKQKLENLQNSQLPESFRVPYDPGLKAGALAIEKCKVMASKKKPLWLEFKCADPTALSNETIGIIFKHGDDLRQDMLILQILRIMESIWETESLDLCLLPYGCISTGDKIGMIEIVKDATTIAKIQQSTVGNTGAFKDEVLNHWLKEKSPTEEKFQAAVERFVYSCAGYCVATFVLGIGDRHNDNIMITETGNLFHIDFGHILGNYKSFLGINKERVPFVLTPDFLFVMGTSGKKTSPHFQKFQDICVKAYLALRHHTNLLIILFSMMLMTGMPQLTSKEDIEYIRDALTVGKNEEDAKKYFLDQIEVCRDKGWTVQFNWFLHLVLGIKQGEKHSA

Target: PI 3-Kγ (Homo sapiens, UniProt P48736)
Conditions: read-out: Reported IC50 Values, cited from earlier work

In the case of `O=c1cc(N2CCOCC2)oc2c(-c3ccccc3)cccc12` [LY294002], the IC50 (PI 3-Kγ) is listed as 5.6 µM and the IC50 (recombinant PI 3-Kγ) is listed as 2.8 µM.

Where two headings read alike, the source gives them in different places.
